Test results from US9440960B2, “Substituted oxetanes and their use as inhibitors of cathepsin C” (Boehringer Ingelheim International GmbH, priority 2014, dated 2016).

By UniProt entry, the sequences of proteins in these tests, tags left out. Residues count along the entry.
UniProt P53634, 25-143 limits assumed: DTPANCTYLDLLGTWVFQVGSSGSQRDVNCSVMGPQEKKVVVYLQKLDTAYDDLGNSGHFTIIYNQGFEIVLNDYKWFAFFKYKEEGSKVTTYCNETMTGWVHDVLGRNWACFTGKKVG
UniProt P53634, 231-394 limits assumed: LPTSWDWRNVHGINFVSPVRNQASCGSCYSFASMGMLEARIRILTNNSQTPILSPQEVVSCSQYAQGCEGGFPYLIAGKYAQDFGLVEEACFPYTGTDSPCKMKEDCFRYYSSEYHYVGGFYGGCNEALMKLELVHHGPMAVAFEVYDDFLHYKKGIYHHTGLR
UniProt P53634, 395-463 limits assumed: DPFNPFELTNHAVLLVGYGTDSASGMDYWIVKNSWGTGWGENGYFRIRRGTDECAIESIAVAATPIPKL

Molecular target: recombinant human DPPI (Cathepsin C) (Homo sapiens, UniProt P53634)
Experiment: Inhibition of Human DPPI (Cathepsin C)
Details: read-out: Inhibition of DPPI IC50, substrate Gly-Arg-AMC 50 μM, MES buffer pH 6.0, 30 min at room temperature, fluorescence readout
Description: Inhibition of Human DPPI (Cathepsin C)
Materials: Microtiterplates (Optiplate-384 F) were purchased from PerkinElmer (Prod.No. 10 6007270). The substrate Gly-Arg-AMC was from Biotrend (Prod.-No. 808756 Custom peptide).
Bovine serum albumin (BSA; Prod.No. A3059) and Dithiothreitol (DTT; Prod.No D0632) were from Sigma. TagZyme buffer was from Riedel-de-Haen (Prod.-No. 04269), NaCl was from Merck (Prod.-No. 1.06404.1000) and morpholinoethane sulfonic acid (MES), was from Serva (Prod.-No.
29834). The DPP1 inhibitor Gly-Phe-DMK was purchased from MP Biomedicals 15 (Prod.-No. 03DK00625). The recombinant human DPPI was purchased from Prozymex. […]
Five uL test compound (final concentration 0.1 nM to 100 μM) in aqua bidest 5 (containing 4% DMSO, final DMSO concentration 1%) were mixed with 10 μL of DPPI in MES buffer (final concentration 0.0125 ng/μL) and incubated for 10 min. […] The fluorescence in the wells was determined using a Molecular Devices SpectraMax M5 Fluorescence Reader (Ex 360 nm, Em 460 nm) or an Envision Fluorescence Reader (Ex 355 nm, Em 460 nm).
Each assay microtiter plate contained wells with vehicle controls (1% DMSO in bidest+0.075% 15 BSA) as reference for non-inhibited enzyme activity (100% Ctl; high values) and wells with inhibitor (Gly-Phe-DMK, in bidest+1% DMSO+0.075% BSA, final concentration 1 μM) as controls for background fluorescence (0% Ctl; low values). […]

N#C[C@H](Cc1ccc(C2CC3CN(C4COC4)CC3C2)cc1F)NC(=O)C12CCC(CC1)CN2 (stereo partly shown)
IC50: 0.0754 µM
